Target: T1, endothelial lipase (EL) (Homo sapiens, UniProt Q9Y5X9)
T1 construct: made in house; host or cells: recombinant cell lines (CHO, HEK293); concentrated conditioned medium used as enzyme solution
T1 sequence (Q9Y5X9 21-500): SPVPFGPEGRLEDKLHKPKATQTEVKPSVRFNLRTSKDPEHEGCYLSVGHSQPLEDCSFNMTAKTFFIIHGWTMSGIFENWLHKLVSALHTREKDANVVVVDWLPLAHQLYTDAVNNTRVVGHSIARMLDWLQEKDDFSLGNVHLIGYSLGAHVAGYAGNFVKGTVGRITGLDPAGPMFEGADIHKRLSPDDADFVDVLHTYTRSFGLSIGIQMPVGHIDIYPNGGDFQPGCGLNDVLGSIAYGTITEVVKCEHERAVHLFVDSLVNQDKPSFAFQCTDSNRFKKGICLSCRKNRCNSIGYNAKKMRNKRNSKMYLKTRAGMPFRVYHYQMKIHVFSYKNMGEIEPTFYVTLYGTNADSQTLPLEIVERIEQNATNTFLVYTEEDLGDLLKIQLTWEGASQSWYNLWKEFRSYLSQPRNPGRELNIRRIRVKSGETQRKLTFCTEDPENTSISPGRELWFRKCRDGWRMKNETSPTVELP
Assay: Further EL inhibition assay
Format: biochemical
Settings: Bodipy-labelled phospholipid substrate, 37° C., 90 minutes, HPTLC fluorescence readout; EL from conditioned medium of recombinant cell lines (CHO, HEK293)
Excerpt: EL is released as secretory protein in high concentration into cell culture medium (conditioned medium) by recombinant cell lines (CHO, HEK293). This is employed as enzyme solution after concentration.
The phospholipase-specific substrate 1,2-bis(4,4-difluoro-5,7-dimethyl-4-bora-3a,4a-diaza-s-indacene-3-undecanoyl)-sn-glycero-3-phosphocholine, (manufacturer Molecular Probes) is used to characterize the enzymatic activity of endothelial lipase and the effect of inhibitors. Hydrolysis of the A1 ester linkage of this phospholipid by the enzyme liberates the fluorescent dye Bodipy which can be detected after separation by thin-layer chromatography on an HPTLC plate (silica gel 60, Merck) or directly in the reaction vessel by measuring the fluorescence.
The substrate solution is prepared by dissolving 100 μg of 1,2-bis(4,4-difluoro-5,7-dimethyl-4-bora-3a,4a-diaza-s-indacene-3-undecanoyl)-sn-glycero-3-phospho-choline (manufacturer Molecular Probes) in 100 μl of DMSO and taking up in 2.4 mg of tripalmitin (Sigma) in 393 μl of chloroform which comprises 20 mg/ml DOP-choline (1,2-dioleoyl-sn-glycero-3-phosphocholine). 39.3 μl of this lipid mixture are transferred into a fresh reaction vessel, and the solvent is evaporated off. […] After evaporation of the eluent, the plate is read in a fluorescence scanner. […]

Compound: CCCCCCNC(=O)n1c(=O)oc2ccccc21 [Example 6, 2-Oxobenzooxazole-3-hexylcarboxamide]
- IC50: 0.02 µM

Source: patent US7709513B2, “Benzooxazol-2-one derivatives as lipase and phospholipase inhibitors” (Sanofi-Aventis, priority 2005, dated 2010)
